# Reference: ChEMBL document CHEMBL1671633, “Repeated administration of high-dose intermittent rifapentine reduces rifapentine and moxifloxacin plasma concentrations” (Antimicrob Agents Chemother, 2008)
# System: Homo sapiens
# Test: Tmax in healthy human assessed as 25-desacetyl-rifapentine level at 900 mg, po thrice weekly measured on day 19 post compound dose by HPLC
# Assay type: ADME, organism-based
# Conditions: in vivo
smiles,measurement,value
COc1c(N2C[C@@H]3CCCN[C@@H]3C2)c(F)cc2c(=O)c(C(=O)O)cn(C3CC3)c12 [MOXIFLOXACIN],Tmax,10.8 h
